Earlier results on one substance are cited in article PMC6686015.

The target of this data set is Trypsin (Bos taurus) (UniProt P00760). Particulars: cited from earlier work.

The Ki is a dissociation constant, usually derived from enzyme kinetics or from competition with a known ligand. Turning to BPTI (from UniProt P00974), the Ki was 0.06 nM.
